B1: DNA polymerase alpha catalytic subunit A (Saccharomyces cerevisiae), P13382 (parent)
chain: MSSKSEKLEKLRKLQAARNGTSIDDYEGDESDGDRIYDEIDEKEYRARKRQELLHDDFVVDDDGVGYVDRGVEEDWREVDNSSSDEDTGNLASKDSKRKKNIKREKDHQITDMLRTQHSKSTLLAHAKKSQKKSIPIDNFDDILGEFESGEVEKPNILLPSKLRENLNSSPTSEFKSSIKRVNGNDESSHDAGISKKVKIDPDSSTDKYLEIESSPLKLQSRKLRYANDVQDLLDDVENSPVVATKRQNVLQDTLLANPPSAQSLADEEDDEDSDEDIILKRRTMRSVTTTRRVNIDSRSNPSTSPFVTAPGTPIGIKGLTPSKSLQSNTDVATLAVNVKKEDVVDPETDTFQMFWLDYCEVNNTLILFGKVKLKDDNCVSAMVQINGLCRELFFLPREGKTPTDIHEEIIPLLMDKYGLDNIRAKPQKMKYSFELPDIPSESDYLKVLLPYQTPKSSRDTIPSDLSSDTFYHVFGGNSNIFESFVIQNRIMGPCWLDIKGADFNSIRNASHCAVEVSVDKPQNITPTTTKTMPNLRCLSLSIQTLMNPKENKQEIVSITLSAYRNISLDSPIPENIKPDDLCTLVRPPQSTSFPLGLAALAKQKLPGRVRLFNNEKAMLSCFCAMLKVEDPDVIIGHRLQNVYLDVLAHRMHDLNIPTFSSIGRRLRRTWPEKFGRGNSNMNHFFISDICSGRLICDIANEMGQSLTPKCQSWDLSEMYQVTCEKEHKPLDIDYQNPQYQNDVNSMTMALQENITNCMISAEVSYRIQLLTLTKQLTNLAGNAWAQTLGGTRAGRNEYILLHEFSRNGFIVPDKEGNRSRAQKQRQNEENADAPVNSKKAKYQGGLVFEPEKGLHKNYVLVMDFNSLYPSIIQEFNICFTTVDRNKEDIDELPSVPPSEVDQGVLPRLLANLVDRRREVKKVMKTETDPHKRVQCDIRQQALKLTANSMYGCLGYVNSRFYAKPLAMLVTNKGREILMNTRQLAESMNLLVVYGDTDSVMIDTGCDNYADAIKIGLGFKRLVNERYRLLEIDIDNVFKKLLLHAKKKYAALTVNLDKNGNGTTVLEVKGLDMKRREFCPLSRDVSIHVLNTILSDKDPEEALQEVYDYLEDIRIKVETNNIRIDKYKINMKLSKDPKAYPGGKNMPAVQVALRMRKAGRVVKAGSVITFVITKQDEIDNAADTPALSVAERAHALNEVMIKSNNLIPDPQYYLEKQIFAPVERLLERIDSFNVVRLSEALGLDSKKYFRREGGNNNGEDINNLQPLETTITDVERFKDTVTLELSCPSCDKRFPFGGIVSSNYYRVSYNGLQCKHCEQLFTPLQLTSQIEHSIRAHISLYYAGWLQCDDSTCGIVTRQVSVFGKRCLNDGCTGVMRYKYSDKQLYNQLLYFDSLFDCEKNKKQELKPIYLPDDLDYPKEQLTESSIKALTEQNRELMETGRSVVQKYLNDCGRRYVDMTSIFDFMLN
partner: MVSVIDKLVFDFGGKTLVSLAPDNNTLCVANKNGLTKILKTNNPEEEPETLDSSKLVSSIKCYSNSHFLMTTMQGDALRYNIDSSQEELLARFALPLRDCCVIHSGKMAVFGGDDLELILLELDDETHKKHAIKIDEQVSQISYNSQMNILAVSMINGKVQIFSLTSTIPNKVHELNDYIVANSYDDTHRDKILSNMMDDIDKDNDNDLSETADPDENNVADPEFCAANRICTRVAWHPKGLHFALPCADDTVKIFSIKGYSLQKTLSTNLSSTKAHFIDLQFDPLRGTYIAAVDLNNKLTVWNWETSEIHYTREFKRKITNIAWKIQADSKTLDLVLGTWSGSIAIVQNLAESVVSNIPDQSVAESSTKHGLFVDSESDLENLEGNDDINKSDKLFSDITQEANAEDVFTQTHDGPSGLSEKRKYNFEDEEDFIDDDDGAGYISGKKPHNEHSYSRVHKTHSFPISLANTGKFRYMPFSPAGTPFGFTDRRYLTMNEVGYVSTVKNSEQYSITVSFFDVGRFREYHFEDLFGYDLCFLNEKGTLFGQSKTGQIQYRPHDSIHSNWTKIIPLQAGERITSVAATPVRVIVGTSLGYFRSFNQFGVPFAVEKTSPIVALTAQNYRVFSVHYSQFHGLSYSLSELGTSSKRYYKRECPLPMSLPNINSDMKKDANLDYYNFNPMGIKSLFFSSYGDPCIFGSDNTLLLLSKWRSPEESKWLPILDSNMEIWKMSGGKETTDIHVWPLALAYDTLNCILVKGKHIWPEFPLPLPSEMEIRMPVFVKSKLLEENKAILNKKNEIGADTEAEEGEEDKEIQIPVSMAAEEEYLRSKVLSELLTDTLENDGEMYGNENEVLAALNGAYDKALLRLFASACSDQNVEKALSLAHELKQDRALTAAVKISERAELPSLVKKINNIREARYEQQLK
B2: DNA replication complex GINS protein SLD5 (Saccharomyces cerevisiae), Q03406 (parent)
chain: MDINIDDILAELDKETTAVDSTKITQGSSSTTHRDANTIVGSSLDLNDKTQIYVSPQQDFSDLMKSWKNERCSPELLPYPHQLMKRLLNRISMQSQLIENISMGFLDMQNASNANPPMPNESKLPLLCMETELERLKFVIRSYIRCRLSKIDKFSLYLRQLNEDENSLISLTDLLSKDEIKYHDTHSLIWLKLVNDSILKYMPEELQAINDTEGSVNMIDEPDWNKFVFIHVNGPPDGKWNEDPLLQENEFGKPCYTVTIPDLKEEVELTIGSIYVMRYEVIRDLLRDDKVALI
partner: B1 partner

Variants of: B1
Conditions: with ctf4_yeast CTF4, Q01454

Effect of a mutation on the interaction, disrupting interaction strength:
L144A
F140A
F147A
D142A
I143A

Variants of: B2
Conditions: with ctf4_yeast CTF4, Q01454

Effect of a mutation on the interaction, disrupting interaction strength:
MDINIDDIAAELDKETTAVDSTKITQGSSSTTHRDANTIVGSSLDLNDKTQIYVSPQQDFSDLMKSWKNERCSPELLPYPHQLMKRLLNRISMQSQLIENISMGFLDMQNASNANPPMPNESKLPLLCMETELERLKFVIRSYIRCRLSKIDKFSLYLRQLNEDENSLISLTDLLSKDEIKYHDTHSLIWLKLVNDSILKYMPEELQAINDTEGSVNMIDEPDWNKFVFIHVNGPPDGKWNEDPLLQENEFGKPCYTVTIPDLKEEVELTIGSIYVMRYEVIRDLLRDDKVALI [L9A]
MDINIDDALAELDKETTAVDSTKITQGSSSTTHRDANTIVGSSLDLNDKTQIYVSPQQDFSDLMKSWKNERCSPELLPYPHQLMKRLLNRISMQSQLIENISMGFLDMQNASNANPPMPNESKLPLLCMETELERLKFVIRSYIRCRLSKIDKFSLYLRQLNEDENSLISLTDLLSKDEIKYHDTHSLIWLKLVNDSILKYMPEELQAINDTEGSVNMIDEPDWNKFVFIHVNGPPDGKWNEDPLLQENEFGKPCYTVTIPDLKEEVELTIGSIYVMRYEVIRDLLRDDKVALI [I8A]
